The values that follow are results of earlier work, collected in PMC7573825, “Population Pharmacokinetics of Vancomycin in Kidney Transplant Recipients: Model Building and Parameter Optimization” (Frontiers in Pharmacology, 2020).

On the set-up of this data set: method as in 3 sources, one per row (each row's own in cited_ref): ref Adane et al., 2015; Lin et al., 2016 ||| ref Ji et al., 2018 ||| ref Lin et al., 2019. The following applies: first of two other studies, typical creatinine clearance rate nearly 60 ml/min; ref Ji et al., 2018; cited from earlier work.

For `CN[C@H](CC(C)C)C(=O)N[C@H]1C(=O)N[C@@H](CC(N)=O)C(=O)N[C@H]2C(=O)N[C@H]3C(=O)N[C@H](C(=O)N[C@H](C(=O)O)c4cc(O)cc(O)c4-c4cc3ccc4O)[C@H](O)c3ccc(c(Cl)c3)Oc3cc2cc(c3O[C@@H]2O[C@H](CO)[C@@H](O)[C@H](O)[C@H]2O[C@H]2C[C@](C)(N)[C@H](O)[C@H](C)O2)Oc2ccc(cc2Cl)[C@H]1O` [vancomycin], the “typical value of drug clearance” value is listed as 3.35 L/h.
